# Reference: PubChem BioAssay AID485273 (Sanford-Burnham Center for Chemical Genomics, 2010)
# Protein sequences, listed by entry. Tags and fused reporters are not part of them.
# UniProt P61088, whole entry, looked up: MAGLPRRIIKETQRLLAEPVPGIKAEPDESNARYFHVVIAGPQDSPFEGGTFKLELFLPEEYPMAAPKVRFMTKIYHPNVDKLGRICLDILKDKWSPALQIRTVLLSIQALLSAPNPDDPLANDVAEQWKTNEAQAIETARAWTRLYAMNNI
# The entries are a selection whose mix differs from that of the whole data set. The source made the active and inactive calls. No stated cut-off is given here; in the data, active means inhibition above about 45% (passing the limit was not always enough); inconclusive means no clear call, values can overlap the other calls.
# Molecular target: Ubiquitin-conjugating enzyme E2 N (Homo sapiens) (UniProt P61088)
# Test: UBC13 polyubiquitin chain formation inhibitors, primary screen, biochemical, TR-FRET, uHTS (AID 485273)
# Details: at 20 µM, stronger effect = higher value
row,SMILES,inhibition
1,O=[N+]([O-])c1cc([N+](=O)[O-])c(NCC2CCS(=O)(=O)C2)c([N+](=O)[O-])c1 (stereo unspecified),inactive: -20.6%
2,COc1ccc(OP(C)(=O)Nc2cccc(Br)c2)cc1 (stereo unspecified),inactive: 6%
3,CN(C)CCOC(=O)C(O)(c1ccccc1)C1CCCCC1 (stereo unspecified),inactive: 4.1%
4,COc1ccc(NP(C)(=O)Oc2ccccc2OC)cc1 (stereo unspecified),inactive: 3.7%
5,Nc1ccc2c(ccc3cccnc32)n1.O=[N+]([O-])c1cc([N+](=O)[O-])c(O)c([N+](=O)[O-])c1,inactive: 0.5%
6,CCOC(=O)c1ccc(NP(C)(=O)Oc2ccc(Cl)cc2)cc1 (stereo unspecified),inactive: 14.9%
7,CP(=O)(OC12CC3CC(CC(C3)C1)C2)OC12CC3CC(CC(C3)C1)C2,inactive: -1.4%
8,COc1ccccc1OP(C)(=O)Nc1ccccc1Br (stereo unspecified),inactive: -1.7%
9,CC(C)(C)c1ccc(OP(C)(=O)O)cc1,inactive: -0.9%
10,CP(=O)(Nc1ccc(Cl)cc1)Oc1ccc(F)cc1 (stereo unspecified),inactive: -4.2%
11,CN(C)C(=O)c1c([N+](=O)[O-])cc([N+](=O)[O-])cc1[N+](=O)[O-],inactive: -4.1%
12,COc1ccc(OP(C)(=O)Nc2ccc(Br)cc2)cc1 (stereo unspecified),inactive: 4.9%
13,CCN(CC)CC(O)COC(=O)C(O)(c1ccccc1)C1CCCCC1 (stereo unspecified),inactive: 9.5%
14,O=C(OCCCN1CCCC1)C(O)(c1ccccc1)C1CCCCC1 (stereo unspecified),inactive: 10.6%
15,COc1ccccc1OP(C)(=O)Nc1c(C)n(C)n(-c2ccccc2)c1=O (stereo unspecified),inactive: 3.3%
16,CCc1ccc(OP(C)(=O)Nc2cccnc2)cc1 (stereo unspecified),inactive: 18.5%

row,SMILES,inhibition
1,CP(=O)(Oc1ccccc1)N1CCOC1=O (stereo unspecified),inactive: -0.6%
2,Cc1c(NP(C)(=O)Oc2ccc(C(C)C)cc2)c(=O)n(-c2ccccc2)n1C (stereo unspecified),inactive: -0.6%
3,O=[N+]([O-])c1cc([N+](=O)[O-])c(Nc2ccccn2)c([N+](=O)[O-])c1,inactive: -25.1%
4,COc1ccccc1OP(C)(=O)Nc1ccc(C)cc1C (stereo unspecified),inactive: -1.8%
5,CP(=O)(Nc1ccccn1)Oc1ccccc1 (stereo unspecified),inactive: -0.1%
6,CCc1ccc(OP(C)(=O)O)cc1,inactive: 0.5%
7,COc1ccccc1OP(C)(=O)Nc1ccc(Br)cc1 (stereo unspecified),inactive: -2.5%
8,COc1ccc(OP(C)(=O)Nc2ccccn2)cc1 (stereo unspecified),inactive: 4.6%
9,CN(C)CCOC(=O)C(O)(c1ccccc1)C1CCCC1 (stereo unspecified),inactive: -2.1%
10,Cc1nc2ccc3ccccc3c2o1.O=[N+]([O-])c1cc([N+](=O)[O-])c(O)c([N+](=O)[O-])c1,inactive: -21.9%
11,CP(=O)(Nc1ccc(Cl)cc1Cl)Oc1ccccc1 (stereo unspecified),inactive: -12.5%
12,CP(=O)(OCCOc1ccccc1)OCCOc1ccccc1,inactive: -7.2%
13,Cc1cc(C)cc(OP(C)(=O)Nc2cccc(C(F)(F)F)c2)c1 (stereo unspecified),inactive: 8.9%
14,COc1ccccc1OP(C)(=O)Nc1ccc(C)c(C)c1 (stereo unspecified),inactive: 5.3%
15,COc1ccc(OP(C)(=O)Nc2ccccc2Br)cc1 (stereo unspecified),inactive: 0.2%
